Test results published in ChEMBL document CHEMBL2331222, “Discovery of novel inhibitors of signal transducer and activator of transcription 3 (STAT3) signaling pathway by virtual screening” (Eur J Med Chem, 2013).

Tested on: HepG2
Assay: Selectivity ratio of inhibitory activity for STAT3 in IL-6-stimulated human HepG2 cells to inhibitory activity for IFN-gamma-stimulated STAT1 (unknown origin) at 10 uM
Format: cell-based

`CCC(Sc1nc2ccc(NC(=O)c3ccc(OC)cc3)cc2s1)C(=O)Nc1ccc(Br)cc1` (stereo unspecified) gave a Ratio greater than 6.
